Key:
CB1 receptor [1] = target: T1, CB1 receptor (Mus musculus, UniProt P47746); settings: previously shown; cited from earlier work
CB1 receptor [2] = target: T1, CB1 receptor; experiment: Food intake in 24 h-food deprived mice (fasting/refeeding); assay type: in vivo, C57B1/6 mice; set-up: tissue Charles River Laboratories (France) (animals); host or cells: living mice, whole animal; settings: SR141716A 0.05 mg/kg ip 30 min before pregnenolone 6 mg/kg

By UniProt entry, the sequences of proteins in these tests, tags left out.
UniProt P47746, whole entry: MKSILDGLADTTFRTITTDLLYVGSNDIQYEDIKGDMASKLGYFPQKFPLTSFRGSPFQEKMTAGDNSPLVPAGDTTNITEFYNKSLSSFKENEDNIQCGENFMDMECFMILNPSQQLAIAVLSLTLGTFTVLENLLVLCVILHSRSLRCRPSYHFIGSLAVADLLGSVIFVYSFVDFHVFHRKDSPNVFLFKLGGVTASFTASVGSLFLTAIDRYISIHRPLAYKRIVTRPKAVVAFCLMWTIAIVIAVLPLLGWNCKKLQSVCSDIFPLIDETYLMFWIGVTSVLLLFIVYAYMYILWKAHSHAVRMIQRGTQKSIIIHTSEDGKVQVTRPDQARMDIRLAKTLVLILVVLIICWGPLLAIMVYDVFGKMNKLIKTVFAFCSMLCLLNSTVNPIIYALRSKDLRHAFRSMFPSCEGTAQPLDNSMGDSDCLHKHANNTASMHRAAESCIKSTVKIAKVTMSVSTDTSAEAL

Cc1c(C(=O)NN2CCCCC2)nn(-c2ccc(Cl)cc2Cl)c1-c1ccc(Cl)cc1 [rimonabant, reference compound]
effect on food intake over 24 hours (CB1 receptor [1]): profoundly reduce food-intake over 24 hours | effect on reduction in food intake induced by pregnenolone (CB1 receptor [2]): suppressed the reduction in food intake induced by pregnenolone

— patent US10150793B2, “Antagonists of CB1 receptor” (INSERM (Institut National de la Santé et de la Recherche …, priority 2011, dated 2018)
